What was measured:
[1] = target: T1, human SOCS1 (residues 53-211) in complex with Elongins B and C (human, UniProt O15524 53-211; Q15370 1-118; Q15369 17-112); assay: ITC; pY1054/pY1055
[2] = target: T1, human SOCS1 (residues 53-211) in …; assay: ITC; pY980/pY981
[3] = target: T1, human SOCS1 (residues 53-211) in …; assay: ITC; IFNαR1 (pY481)
[4] = target: T1, human SOCS1 (residues 53-211) in …; assay: ITC; pY1007/pY1008

Amino acid sequences for entries named in this document (tags omitted). Residues count along the entry.
UniProt O15524, 53-211, chain 1 of 3: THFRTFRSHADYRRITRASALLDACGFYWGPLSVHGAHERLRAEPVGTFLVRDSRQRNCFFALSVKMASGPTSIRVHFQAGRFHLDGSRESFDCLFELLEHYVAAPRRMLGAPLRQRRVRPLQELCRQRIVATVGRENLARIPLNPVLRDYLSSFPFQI

VPEGHEYYRVREDGD (doubly-phosphorylated (phosphotyrosines)) [TYK2 activation loop phosphopeptide]
Kd [1]: 346 nM

LLPLDKDYYVVREPGQ (doubly-phosphorylated (phosphotyrosines)) [JAK3 activation loop phosphopeptide]
Kd [2]: 210 nM

RCINYVFFPSL (phosphotyrosine) [one phosphopeptide from the IFN-α receptor (site within the Box1/2 motif)]
Kd [3]: 686 nM

VLPQDKEYYKVKEPGE (doubly-phosphorylated (phosphotyrosines)) [JAK2 activation loop phosphopeptide]
Kd [4]: 615 nM

Source: PMC5908791 (2018)
